# Key:
# [1] = tested on: canonical Wnt signaling pathway; experiment: TCF-luciferase assay in cultured ovarian somatic cells; assay type: cell-based; conditions: somatic cells of day 10 mice, agent alone, 18 h
# Procedure: TCF-luciferase assay: Ovarian somatic cells from day 10 mice were cultured overnight at 37 C in McCoy's 5a medium containing 10% fetal bovine serum (FBS; Gibco) before evaluation of Wnt signaling based on the TCF-luciferase assay. Cells were transfected with 1 μg of pTOP FLASH or pFOP FLASH plasmid together with 0.1 μg of pRL-TK plasmid using lipofectamine 2000 (Invitrogen, Carlsbad, Calif.) for 6 h. After culturing in McCoy's 5a medium containing 10% FBS overnight, cells were cultured in serum-free medium for 8 h and treated with R-spondin2, Wnt3a, and/or FSH for 18 h. Luciferase activity expressed as relative light unit was determined using a Dual Luciferase Reporter Assay Kit (Promega) with a luminometer (Bio-Rad).
# Treatment with R-spondin2 stimulated the canonical Wnt signaling pathway and proliferation of ovarian somatic cells To monitor the activation of the canonical Wnt signaling pathway, somatic cells were obtained from ovaries of day 10 mice and transfected with TCF-luciferase reporter plasmids before treatment with R-spondin2, Wnt3a, and/or FSH for 18 h. Luciferase activity was measured as an index of Wnt signaling. […] To estimate the number of viable cells, cells were also cultured with increasing doses of R-spondin2 with or without Wnt3a before measurement of mitochondrial reductase (MTS) activity.
# [2] = tested on: somatic cells obtained from day 10 ovaries; experiment: Cell proliferation (MTS) assay of ovarian somatic cells; assay type: cell-based, mice; conditions: agent alone, 2 days
# Procedure: Cell proliferation assay: Ovaries obtained from day 10 mice were digested with collagenase I, DNase, and trypsin. After centrifuging at 270×g for 10 min., cell pellet was washed and plated in a 96-well plate (BD Falcon, Franklin Lakes, N.J.) in McCoy's 5a medium (Gibco BRL, Grand Island, N.Y.) containing 4 mg/ml BSA (Sigma Aldrich Chemicals, St. Louis, Mo.), penicillin-streptomycin (Gibco) and sodium pyruvate (Gibco) for 3 h at 37 C. After washing twice with PBS to remove floating oocytes, cells were cultured in serum-free McCoy's 5a medium containing different factors for 48 h. MTS (3-(4,5-dimethylthiazol-2-yl)-5-(3-carboxymethoxyphenyl)-2-(4-sulfophenyl)-2H-tetrazolium) assay was performed using Cell Titer 96 Aqueous One Solution Cell Proliferation Assay (Promega, Madison, Wis.) by adding the substrate for 2 h before measuring absorbance at 490 nm.
# ovaries from day 10 mice [3] = experiment: Ovarian explant cultures treated with R-spondin2 and/or FSH; assay type: cell-based
# Procedure: Ovarian explant cultures: Ovaries from day 10 mice were placed on culture plate insert (Millipore, Bedford, Mass.) and cultured in 400 μl of DMEM/F12 (Gibco) containing 0.1% BSA (Sigma), 0.1% Albumax II (Gibco), insulin-transferrin-selenium (Gibco), 0.05 mg/ml L-ascorbic acid (Sigma) and penicillin-streptomycin (Gibco) under the membrane insert to cover ovaries with a thin layer of medium. […] Explants treated with non-immune IgG or boiled (100 C, 15 min) R-spondin2 antibodies served as negative controls. At the end of culture, ovaries were fixed in Bouin's solution, paraffin embedded, and cut into continuous sections before staining with hematoxylin and eosin. Only follicles with clearly stained oocyte nucleus were counted to prevent recounting of the same follicle.
# ovaries from day 10 mice [4] = experiment: Ovarian explant cultures treated with CNP and/or FSH; assay type: cell-based
# Procedure: Ovarian explant cultures: Ovaries from day 10 mice were placed on culture plate inserts (Millipore, Bedford, Mass.) and cultured in 400 μl of DMEM/F12 containing 0.1% BSA (Sigma), 0.1% Albumax II, insulin-transferrin-selenium, 0.05 mg/ml L-ascorbic acid and penicillin-streptomycin under the membrane insert to cover ovaries with a thin layer of medium. Ovaries were treated with CNP and/or FSH with media changes every 2 days for 4 days. Some explants were also treated with a pan-specific protein kinase G inhibitor, Rp-8-Br-PET-cGMPS (BioLog, Bremen, Germany). At the end of culture, ovaries were fixed in Bouin's solution, paraffin embedded, and cut into continuous sections before staining with hematoxylin and eosin.
# [5] = native FSH; cited from earlier work
# [6] = treatment with R-spondin2 and/or FSH
substance,measurement,setting,value
"FSH: Follicle-stimulating hormone, a dimeric glycoprotein",TCF-luciferase activity,[1],ineffective
same,MTS activity (viable cell number),[2],increased the viable cell numbers
same,Ovarian follicle development (morphological analyses),ovaries from day 10 mice [3]; 4 days culture,promotion of ovarian follicle development
same,Percentage of primordial and degenerated follicles,ovaries from day 10 mice [3]; [6],negligible changes
same,Ratio of primary and percentage of secondary follicles,ovaries from day 10 mice [3]; [6],decreased the ratio of primary follicles accompanied by increases in the percentage of secondary follicles
same,Development of preantral follicles (histological analyses),ovaries from day 10 mice [4]; 4 days culture,promoted the development of preantral follicles
same,Ovarian weights of explants,"ovaries from day 10 mice [4]; day 10 ovaries, 4 days culture",increased ovarian weights
same,NPPC transcript levels,"ovaries from day 10 mice [4]; real-time RT-PCR, 2 and 4 days after treatment",increases in NPPC transcript levels
same,NPRB transcript levels,"ovaries from day 10 mice [4]; real-time RT-PCR, explant culture",no changes in NPRB transcript levels
same,half-life,[5],3 to 4 h
